In PubChem BioAssay AID2291 (The Scripps Research Institute Molecular Screening Center, 2010):
Only a part is listed here, and it is no random draw. Calls of active or inactive are those of the source. Cut-off read from the data, not from the text of the source: active = inhibition above about 30%; inactive = the rest.

By UniProt entry, the sequences of proteins in these tests, tags left out. Where a name states a change or a piece, a line headed by the entry shows the natural chain unless it says otherwise.
UniProt Q9Y570: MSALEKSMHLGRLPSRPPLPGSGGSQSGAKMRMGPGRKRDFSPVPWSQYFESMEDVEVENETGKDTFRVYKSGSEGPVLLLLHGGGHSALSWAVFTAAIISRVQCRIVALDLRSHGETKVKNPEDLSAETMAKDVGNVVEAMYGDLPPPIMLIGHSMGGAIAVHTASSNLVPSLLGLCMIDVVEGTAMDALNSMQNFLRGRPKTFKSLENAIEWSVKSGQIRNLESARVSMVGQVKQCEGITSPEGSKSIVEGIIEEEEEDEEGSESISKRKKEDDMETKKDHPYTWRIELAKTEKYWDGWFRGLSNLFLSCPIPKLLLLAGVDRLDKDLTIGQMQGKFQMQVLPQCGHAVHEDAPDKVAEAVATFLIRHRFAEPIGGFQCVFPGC

Target: Protein phosphatase methylesterase 1 (Homo sapiens) (UniProt Q9Y570)
Assay: inhibitors of human PME-1 in Maybridge library (AID 2291)
Conditions: recombinant PME-1, FP-Rh probe fluorescence polarization; at 9 µM; hits give high values

SMILES | inhibition
O=C(OC1CN2CCC1CC2)c1cccc([N+](=O)[O-])c1 (configuration not stated) | inactive: -1.03%
CCOC(=O)/C(=N/Nc1ccc([N+](=O)[O-])cc1)N1CC1 | inactive: 6.59%
